Molecules are shown by their SMILES. “And” between values parts separate entries of the source, which are not always exact repeats. Equal values may be shown once. Only a part is listed here, and it is no random draw. The source made the active and inactive calls. Calls come from the whole dose curve; as a rule, active = well fitted inhibition curve with a large enough effect; inconclusive = small, poorly fitted or top-dose-only effect; inactive = flat fitted curve, though single readings scatter.

By UniProt entry, the sequences of proteins in these tests, tags left out. Where a name states a change or a piece, a line headed by the entry shows the natural chain unless it says otherwise.
UniProt P54132: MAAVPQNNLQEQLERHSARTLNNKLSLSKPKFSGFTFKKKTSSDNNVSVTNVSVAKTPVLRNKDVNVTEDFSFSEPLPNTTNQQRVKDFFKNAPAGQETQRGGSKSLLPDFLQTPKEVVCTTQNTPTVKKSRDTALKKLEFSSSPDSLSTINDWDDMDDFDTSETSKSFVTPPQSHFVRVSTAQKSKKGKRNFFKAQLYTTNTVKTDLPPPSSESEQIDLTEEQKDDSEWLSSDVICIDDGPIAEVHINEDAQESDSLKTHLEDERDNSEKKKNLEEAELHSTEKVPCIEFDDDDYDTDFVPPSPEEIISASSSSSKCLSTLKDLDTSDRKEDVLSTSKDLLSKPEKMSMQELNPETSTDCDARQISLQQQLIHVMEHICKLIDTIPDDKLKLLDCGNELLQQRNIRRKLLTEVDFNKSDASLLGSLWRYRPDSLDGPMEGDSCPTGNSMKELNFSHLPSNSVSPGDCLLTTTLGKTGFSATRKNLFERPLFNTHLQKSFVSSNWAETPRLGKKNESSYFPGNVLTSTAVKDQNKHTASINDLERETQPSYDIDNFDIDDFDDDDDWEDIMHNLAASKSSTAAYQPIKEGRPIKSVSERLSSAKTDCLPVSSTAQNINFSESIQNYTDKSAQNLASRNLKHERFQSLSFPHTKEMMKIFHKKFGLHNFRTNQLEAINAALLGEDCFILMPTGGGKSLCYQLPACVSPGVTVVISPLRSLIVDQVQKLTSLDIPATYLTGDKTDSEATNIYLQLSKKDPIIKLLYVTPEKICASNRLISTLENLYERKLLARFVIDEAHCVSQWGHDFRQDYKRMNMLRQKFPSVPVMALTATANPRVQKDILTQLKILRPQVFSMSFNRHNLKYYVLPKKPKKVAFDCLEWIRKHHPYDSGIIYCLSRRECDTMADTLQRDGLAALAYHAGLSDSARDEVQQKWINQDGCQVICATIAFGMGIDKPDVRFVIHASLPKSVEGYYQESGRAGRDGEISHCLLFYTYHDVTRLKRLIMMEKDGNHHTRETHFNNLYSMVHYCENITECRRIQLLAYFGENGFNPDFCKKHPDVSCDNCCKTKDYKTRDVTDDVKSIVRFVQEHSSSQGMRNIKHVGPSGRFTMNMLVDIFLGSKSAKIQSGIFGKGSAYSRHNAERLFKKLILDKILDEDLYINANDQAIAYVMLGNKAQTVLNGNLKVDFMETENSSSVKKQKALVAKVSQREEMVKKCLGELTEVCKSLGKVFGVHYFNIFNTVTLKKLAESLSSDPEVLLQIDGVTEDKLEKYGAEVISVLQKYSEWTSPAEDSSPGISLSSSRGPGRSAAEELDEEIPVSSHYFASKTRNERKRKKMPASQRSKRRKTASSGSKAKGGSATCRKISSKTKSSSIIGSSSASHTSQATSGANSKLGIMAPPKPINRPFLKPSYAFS

Activity change, negative = inhibition data for 48 compounds are collected here from PubChem BioAssay AID2528 (National Center for Advancing Translational Sciences (NCATS), 2010).

The test addresses RecQ-like DNA helicase BLM (Homo sapiens) (UniProt P54132). Put plainly: qHTS Assay for Inhibitors of Bloom's syndrome helicase (BLM).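 Note: plate controls were vehicle for no effect and no enzyme for full effect; nearly all actives have a fitted effect of over 35% in size.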 The note with it: recombinant BLM DNA unwinding, fluorescence dequenching. A general note: qHTS replaces the single test concentration by a dilution series.
The mark [1] stands for this setting: at 56.1 µM (top of the series) unless noted.

Turning to `O=C(O)COc1ccc([As](=O)(O)O)cc1[N+](=O)[O-]`, the activity change, negative = inhibition under setting [1] is inactive: -0.0636%.
In the case of `Nc1ccccc1[As](=O)(O)c1ccccc1`, under setting [1], the activity change, negative = inhibition was inactive: -2.14%.
As for `CS(=O)(=O)c1cc([N+](=O)[O-])c2no[n+]([O-])c2c1`, under setting [1], the activity change, negative = inhibition was inactive: -3.11%.
Take `CCOP1(=S)c2c(C)nn(CCC#N)c2N=C(c2ccccc2F)N1C` (centres undefined): the activity change, negative = inhibition under setting [1] is inactive: -4.5%.
Consider `O=P(Nc1nccs1)(Oc1ccccc1)Oc1ccccc1`, for which, under setting [1], the activity change, negative = inhibition was inactive: -14.2%.
`O=P(Nc1nccs1)(c1ccccc1)c1nc2ccccc2s1` (centres undefined): the activity change, negative = inhibition under setting [1] was inactive: 1.01%.
On the same count and under the same terms, the figure for `O=[N+]([O-])c1ccc2c(c1)nnn2O` is inactive: -4.11%; for `CCOP1(=S)c2c(C)nn(CCC#N)c2N=C(c2ccc(F)cc2)N1C` (centres undefined) it is inactive: -2.65%.
`NC(=O)Nc1ccc([As](=O)(O)O)cc1`: the activity change, negative = inhibition is, setting by setting: (at 21.4 µM (top of the series)) inactive: 3.24%; (at 56.1 µM (top of the series)) inactive: -10.5% and inactive: -0.466%.
In the case of `O=[N+]([O-])CC(O)c1ccc([N+](=O)[O-])cc1` (centres undefined), the activity change, negative = inhibition under setting [1] was inactive: 5.74%.
On the same count and under the same terms, next, `Cc1cccc(OCC(=O)OC2CN3CCC2CC3)c1` (centres undefined): inactive: 3.85%; `O=[As](O)(c1cccc(O)c1)c1cccc(O)c1`: inactive: -2.29%; `O=[As](O)(O)c1cccnc1`: inactive: 0.311%.
In the case of `COc1cc(C(=O)NCC2(N3CCOCC3)CCCCC2)cc(Cl)c1OC(C)C`, the activity change, negative = inhibition under setting [1] was inactive: -4.27%.
Regarding `CS(=O)(=O)c1ccc(Cl)c(NC(=O)COC(=O)C(O)(c2ccccc2)c2ccccc2)c1`, the activity change, negative = inhibition under setting [1] was inactive: -5.62%.
Still for that read-out and setting: the figure for `O=C(OC1CN2CCC1CC2)c1ccc(Cl)cc1` (centres undefined) is inactive: -1.69%; for `COc1cc(C2NCCC3(OCCO3)C2(C)C)cc(OC)c1OC` (centres undefined) it is inactive: 1.22%; for `CCOP(=O)(Nc1cccc2ccccc12)OCC` it is inactive: 0.553%.
Still for that read-out and setting: next, `CCCOP(=S)(Nc1nc(N)cc(=O)[nH]1)OCCC`: inactive: -6.27%; `Cc1ccc(NCCc2c([N+](=O)[O-])cc([N+](=O)[O-])cc2[N+](=O)[O-])cc1`: inactive: -12%.
Same read-out and setting: the figure for `COc1ccc2nc(NP(=O)(c3ccccc3)c3ccccc3)sc2c1` is inactive: -3.34%; for `COc1cc(I)ccc1[As](=O)(O)O` it is inactive: -3.86%; for `O=C(OC1CN2CCC1CC2)C12CC3CC(CC(C3)C1)C2` (centres undefined) it is inactive: 2.1%.
In the case of `Cc1cc(=O)[nH]c(N[N+](=O)[O-])n1`, under setting [1], the activity change, negative = inhibition was inactive: 1.39%.
Same read-out and setting: the figure for `Cc1c2c(nc3ccccc13)SC(C(Cl)Cl)C2` (centres undefined) is inactive: 3.37%.
Still for that read-out and setting: the figure for `COc1ccc(N/C(=N/P(=O)(N2CCOCC2)N2CCOCC2)N2CCOCC2)cc1` is inactive: 0.652%; for `Cc1ccc2nc3c(c(C)c2c1)CC(C(Cl)Cl)S3` (centres undefined) it is inactive: -5.26%.
Same read-out and setting: the figure for `Cc1ccc(OP(=O)(Nc2ccc([N+](=O)[O-])cn2)Oc2ccc(C)cc2)cc1` is inactive: 1.11%.
With `O=[As](O)(c1ccc(O)cc1)c1ccccc1O`, the activity change, negative = inhibition under setting [1] is inactive: -0.423%.
In the case of `C[As](=O)(O)c1cccc(C(=O)O)c1`, under setting [1], the activity change, negative = inhibition was inactive: -1.02%.
As to `CC(C)NC(=O)NP(=O)(Oc1ccccc1)Oc1ccccc1`, under setting [1], the activity change, negative = inhibition was inactive: -0.926%.
For the compound `CCN(CC)C(=S)SC(NC=O)C(Cl)(Cl)Cl` (centres undefined), the activity change, negative = inhibition under setting [1] was inactive: -2.25%.
Still for that read-out and setting: the figure for `O=[N+]([O-])c1cc([N+](=O)[O-])c(-c2ccn[nH]2)s1` is inactive: -10.2%.
The same measure, in the same setting: next, `CC(C)c1ccc(OP(=O)(Nc2ccccn2)Oc2ccccc2F)cc1` (centres undefined): inactive: -6.58%.
Consider `ClCCSc1nnc(-c2cccnc2)o1`, for which, under setting [1], the activity change, negative = inhibition was inactive: 0.981%.
Regarding `CCCCOc1ccc(C(=O)NCC2(N3CCCCC3)CCCCC2)cc1OC`, the activity change, negative = inhibition under setting [1] is inactive: -0.11%.
As to `Cc1cc(SC(NC(=O)c2ccccc2)C(Cl)(Cl)Cl)nc(C(C)C)n1` (centres undefined), the activity change, negative = inhibition under setting [1] was inactive: -2.03%.
`CCOC(=O)Nc1ccc([As](=O)(O)O)c(O)c1`: the activity change, negative = inhibition under setting [1] is inactive: 0.0886%.
The same measure, in the same setting: next, `O=[N+]([O-])c1ccc(Nc2ccc(Oc3ccc([N+](=O)[O-])cc3[N+](=O)[O-])cc2)c([N+](=O)[O-])c1`: inactive: -4.69%.
`Cc1cc(SC(NC=O)C(Cl)(Cl)Cl)ncn1` (centres undefined): the activity change, negative = inhibition under setting [1] was inactive: 0.026%.
`O=P(Nc1ccccn1)(c1cccc2ccccc12)c1cccc2ccccc12`: under setting [1], the activity change, negative = inhibition is inactive: -4.35%.
Same read-out and setting: the figure for `CCOC(=O)Nc1cccc([As](=O)(O)O)c1` is inactive: -1.31%; for `O=C(COc1ccccc1)OC1CN2CCC1CC2` (centres undefined) it is inactive: -0.913%.
As for `O=C(Nc1ccncc1[N+](=O)[O-])c1ccc([N+](=O)[O-])cc1[N+](=O)[O-]`, under setting [1], the activity change, negative = inhibition was inactive: -2.44%.
Same read-out and setting: next, `COP1(=S)c2c(C)nn(CCC#N)c2N=C(c2ccc(F)cc2)N1C` (centres undefined): inactive: -11.4%.
On the same count and under the same terms, the figure for `CCC(C)N(CC(C)C)C(=S)SC(NC(C)=O)C(Cl)(Cl)Cl` (centres undefined) is inactive: -8.3%; for `CCOC(=O)c1ccc(NC(=O)C(C)(CCl)SC)cc1` (centres undefined) it is inactive: -0.212%.
Same read-out and setting: next, `O=C(OC1CN2CCC1CC2)c1cccc([N+](=O)[O-])c1` (centres undefined): inactive: -1.26%.
